These results are taken from patent publication US7057059B2, “Tumor-inhibiting platinum (II) oxalate complexes” (Faustus Forschungs CIE. Translational Cancer Research GmbH, priority 2002, dated 2006).

Data set [1] deals with animals free of tumors. The experiment in a line: MTD study on animals free of tumors. The note with it: Qd×5, animals free of tumors.
Data set [2] relates to SW480 (adenocarcinoma of the colon; primary resistance to cisplatinum). As to conditions: read-out: LC50; cell line SW480, MTT, 96 h. How it is done: (§1) The cytotoxicity of the compounds according to Examples 1 and 2 was tested by using the following cell lines 41M, CH1 and SW480. In this respect the following method was selected:
(§2) In this regard, adherent monolayer cultures of the following cell lines were used: 41M (adenocarcinoma of the ovary), CH1 (adenocarcinoma of the ovary), SW480 (adenocarcinoma of the colon; primary resistance to cisplatinum).
(§3) Culture conditions: The cells were kept in 75 cm^2 culture flasks at 37° C. and moist atmosphere (5% CO2). Minimal Essential Medium (MEM) was used as culture medium, with 2 mmol/l I-glutamine, 1 mmol/l sodium pyruvate, 50 IU/ml penicillin, 50 μg/ml streptomycin and 10% heat-inactivated foetal bovine serum.
(§4) Test execution: Cell suspensions were obtained from subconfluent cultures by treatment with trypsin and seeded in defined density in 96-well microculture plates. The initial density was selected such that for the complete test duration an exponential growth of the cultures was guaranteed. For the cell line 41M this was 4·10^4 cells/ml, for CH1 1.25·10^4 cells/ml and for SW480 1.5·10^4 cells/ml. The plates were incubated for 24 h under standard conditions to achieve cell establishment. Then the compounds to be tested were introduced in ten-staged concentration series in the culture medium (without addition of organic solvents or dissolving agents) into the plates and left for the complete test duration (96 h). Per experiment each concentration was tested on eight microcultures of the same cell line. At the end of the experiment the respective number of living cells in the microculture was determined spectrophotometrically (at 550 nm) using the MTT-dye reaction in relationship to the untreated control cultures. Equally, the number of living cells in microculture plates started in parallel was quantified at the start of the active substance exposition. […] The mean values were used for the evaluation.

For data set [3], the system named is 41M (adenocarcinoma of the ovary). The note with it: read-out: LC50; cell line 41M, MTT, 96 h. How it is done:
as §1, §2, §3, §4

For data set [4], the system named is CH1 (adenocarcinoma of the ovary). As to conditions: read-out: LC50; cell line CH1, MTT, 96 h. How it is done: as §1, §2, §3, §4

Substance “(SP-4-3)-(4-methyl-trans-cyclohexane-1,2-diamine)oxalatoplatinum (II) [[(4-methyl-trans-chxn)Pt(ox)]]” had an MTD in data set [1] of 10 mg/kg. Further, the CC50 in data set [2] was determined as 73.3 ± 48.9 µM; in data set [3], 17.9 ± 7 µM; in data set [4], 1.9 ± 0.4 µM.
